From patent publication US11925655B2, “FAP-activated therapeutic agents, and uses related thereto” (Bach Biosciences, LLC, priority 2014, dated 2024)

Target: T1, FAP (Homo sapiens, UniProt Q12884)
T1 sequence (Q12884 1-760): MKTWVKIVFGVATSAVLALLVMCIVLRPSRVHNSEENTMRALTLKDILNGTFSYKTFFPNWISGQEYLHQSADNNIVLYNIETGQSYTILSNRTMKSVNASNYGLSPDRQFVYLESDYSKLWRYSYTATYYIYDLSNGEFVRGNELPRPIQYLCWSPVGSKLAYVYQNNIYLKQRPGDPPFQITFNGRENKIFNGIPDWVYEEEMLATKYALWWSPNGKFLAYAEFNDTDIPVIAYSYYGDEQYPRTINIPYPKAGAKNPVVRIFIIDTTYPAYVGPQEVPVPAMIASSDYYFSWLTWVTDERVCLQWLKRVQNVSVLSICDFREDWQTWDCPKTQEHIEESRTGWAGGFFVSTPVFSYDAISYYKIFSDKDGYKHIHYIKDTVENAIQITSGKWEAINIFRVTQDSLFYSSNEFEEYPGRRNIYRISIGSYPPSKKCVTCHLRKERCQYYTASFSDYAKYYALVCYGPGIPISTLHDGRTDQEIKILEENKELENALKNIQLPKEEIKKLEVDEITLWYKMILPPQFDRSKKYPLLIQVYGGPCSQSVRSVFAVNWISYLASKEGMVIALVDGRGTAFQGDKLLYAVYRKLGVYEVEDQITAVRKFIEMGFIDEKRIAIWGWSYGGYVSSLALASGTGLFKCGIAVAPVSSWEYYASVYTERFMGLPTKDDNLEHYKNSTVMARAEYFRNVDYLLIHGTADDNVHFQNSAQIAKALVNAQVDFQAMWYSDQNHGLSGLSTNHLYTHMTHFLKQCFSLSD
Experiment: Rate of recombinant FAP activity on doxorubicin prodrugs
Conditions: 37° C., 24 hours

COc1cccc2c1C(=O)c1c(O)c3c(c(O)c1C2=O)C[C@@](O)(C(=O)CO)C[C@@H]3O[C@H]1C[C@H](NC(=O)[C@@H]2CCCN2C(=O)[C@@H](C)NC(=O)c2ccncc2)[C@H](O)[C@H](C)O1 [Compound 3099DOX]
rate of yielding free doxorubicin versus z-GP-DOX or 3996DOX: significantly faster
